Experimental data taken from paper doi:10.1101/568618 (bioRxiv, 2019).

Target: T1, Arabidopsis COP1^349-675 WD40 domain (Arabidopsis, UniProt P43254 349-675)
T1 sequence: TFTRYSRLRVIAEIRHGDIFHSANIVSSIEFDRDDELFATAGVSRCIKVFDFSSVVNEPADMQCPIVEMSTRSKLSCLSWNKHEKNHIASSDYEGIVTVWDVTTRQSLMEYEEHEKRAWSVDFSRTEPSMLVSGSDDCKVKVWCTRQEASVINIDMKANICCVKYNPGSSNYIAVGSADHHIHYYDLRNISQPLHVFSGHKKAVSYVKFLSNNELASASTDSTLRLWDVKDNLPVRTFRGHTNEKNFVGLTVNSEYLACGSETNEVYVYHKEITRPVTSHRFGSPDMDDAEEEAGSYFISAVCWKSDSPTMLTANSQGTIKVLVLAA
Test: grating-coupled interferometry

## full-length UVR8^ValPro/AlaAla (from UniProt Q9FN03 1-440) (natural protein)
  fold reduced affinity against wild-type UVR8: 20 fold
